Laboratory results from patent US10988531B2, “Conjugates comprising cell-binding agents and cytotoxic agents” (ImmunoGen, Inc., priority 2014, dated 2021).

Columns and labels:
KB cells = test: in vitro cytotoxicity (WST-8) on KB cells; format: cell-based; conditions: in the presence of 1 μM unconjugated huMOV19
Description: 100 μl/well of each ADC was diluted in RPMI-1640 (Life Technologies) supplemented with heat-inactivated 10% FBS (Life Technologies) and 0.1 mg/ml gentamycin (Life Technologies) in a 96-well plate (Corning, flat bottom) at starting concentrations of 3.5×10^−9 M to 3.5×10^−8 M in triplicate and serially diluted 3-fold in media above at ambient temperature. KB cells (buccal epithelial tumor), grown in EMEM (ATCC) supplemented with heat-inactivated 10% FBS (Life Technologies) and 0.1 mg/ml gentamycin (Life Technologies), were washed once in PBS and removed with 0.05% trypsin-EDTA (Life Technologies). Other cells tested were NCI-H2110 (NSCLC) and T47D (breast epithelial) grown in RPMI-1640 (LifeTechnologies) supplemented with heat-inactivated 10% FBS (Life Technologies) and 0.1 mg/ml gentamycin (Life Technologies). T47D media also was supplemented with 0.2 IU/ml bovine insulin. All cells were resuspended in growth media (see above) to neutralize trypsin and counted on a Coulter counter. […] After incubation, cell viability was analyzed by addition of 20 μl/well WST-8 (Dojindo) and allowed to develop for 2 hr. Absorbance was read on a plate reader at 450 and 620 nm. Absorbances at 620 nm were subtracted from absorbances at 450 nm. Background in wells containing media only was further subtracted from corrected absorbances and surviving fraction (SF) of untreated cells was calculated in Excel. […]

[1] = in vivo tolerability study in CD-1 mice; conditions: female CD-1 mice, intravenous, D2 drug dose
Description: Female CD-1 mice (7 weeks of age) were obtained from Charles River Laboratories.
Mice were randomized into three groups by body weight. The body weights ranged from 25.6 to 24.1 grams with an average of 25 grams. […] Administration of all conjugates was carried out intravenously with a 1.0 ml syringe fitted with a 27 gauge, ½ inch needle. Individual body weights were measured at the indicated time points in FIG. 29 and the % change is graphed vs. time (days). Each line represents the body weight changes of one mouse. Animals that were moribund or experienced body weight loss >20% were sacrificed, as this is defined as an intolerable dose.

B1: huMOV19-sSPDB-Compound A (conjugate)
heavy: QVQLVQSGAEVVKPGASVKISCKASGYTFTGYFMNWVKQSPGQSLEWIGRIHPYDGDTFYNQKFQGKATLTVDKSSNTAHMELLSLTSEDFAVYYCTRYDGSRAMDYWGQGTTVTVSSASTKGPSVFPLAPSSKSTSGGTAALGCLVKDYFPEPVTVSWNSGALTSGVHTFPAVLQSSGLYSLSSVVTVPSSSLGTQTYICNVNHKPSNTKVDKKV[human IgG1 Fc left out here]
light: DIVLTQSPLSLAVSLGQPAIISCKASQSVSFAGTSLMHWYHQKPGQQPRLLIYRASNLEAGVPDRFSGSGSKTDFTLTISPVEAEDAATYYCQQSREYPYTFGGGTKLEIKRTVAAPSVFIFPPSDEQLKSGTASVVCLLNNFYPREAKVQWKVDNALQSGNSQESVTEQDSKDSTYSLSSTLTLSKADYEKHKVYACEVTHQGLSSPVTKSFNRGEC
antigen-independent potency of the two conjugates (KB cells): nearly identical

B2: huMOV19-D2: lysine-linked conjugate of huMOV19 with D2 (conjugate)
heavy: QVQLVQSGAEVVKPGASVKISCKASGYTFTGYFMNWVKQSPGQSLEWIGRIHPYDGDTFYNQKFQGKATLTVDKSSNTAHMELLSLTSEDFAVYYCTRYDGSRAMDYWGQGTTVTVSSASTKGPSVFPLAPSSKSTSGGTAALGCLVKDYFPEPVTVSWNSGALTSGVHTFPAVLQSSGLYSLSSVVTVPSSSLGTQTYICNVNHKPSNTKVDKKV[human IgG1 Fc left out here]
light: DIVLTQSPLSLAVSLGQPAIISCKASQSVSFAGTSLMHWYHQKPGQQPRLLIYRASNLEAGVPDRFSGSGSKTDFTLTISPVEAEDAATYYCQQSREYPYTFGGGTKLEIKRTVAAPSVFIFPPSDEQLKSGTASVVCLLNNFYPREAKVQWKVDNALQSGNSQESVTEQDSKDSTYSLSSTLTLSKADYEKHKVYACEVTHQGLSSPVTKSFNRGEC
maximum tolerated dose (MTD) [1]: ~0.1 mg/kg
